# Test results from publication PMC7769008 (2020).
# Where two headings read alike, the source gives them in different places.
# Columns and labels:
# [1] = MLM incubation
# [2] = tested on: 45 receptors and channels; conditions: 10 μM; radioligand binding and functional assays
# [3] = tested on: HeLa cells; conditions: 100 μM, 3 days after treatment
compound,measurement,setting,value
"O=c1c2cc(F)ccc2n2c(=S)[nH]nc2n1CC1CC1 [Compound 79, 4-(Cyclopropylmethyl)-7-fluoro-1-thioxo-2,4-dihydro-[1,2,4]-triazolo[4,3-a]quinazolin-5(1H)-one]",major metabolite (LC–MS/MS),[1],glucuronidation is the major metabolite
"NCCCn1c(=O)c2cc(F)ccc2n2c(=S)[nH]nc12 [Compound 68, 4-(3-Aminopropyl)-7-fluoro-1-thioxo-2,4-dihydro-[1,2,4]triazolo-[4,3-a]quinazolin-5(1H)-one]",potential off-target interactions,[2],not detected
same,PAMPA,Free base,16.8 ×10⁻⁶ cm/s
"CCCn1c(=O)c2cccc(F)c2n2c(SC)nnc12 [Compound 145, 9-Fluoro-1-(methylthio)-4-propyl-[1,2,4]triazolo[4,3-a]-quinazolin-5(4H)-one]",decrease of total cell population,[3],approximately 50%
"N#Cc1ccc(CC(=O)NCCCn2c(=O)c3cc(F)ccc3n3c(=S)[nH]nc23)cc1 [Compound 134, 2-(4-Cyanophenyl)-N-(3-(7-fluoro-5-oxo-1-thioxo-1,2-dihydro-[1,2,4]triazolo[4,3-a]quinazolin-4(5H)-yl)propyl)acetamide]",major metabolite (LC–MS/MS),[1],glucuronidation is the major metabolite
O=c1c2cc(N3CCOCC3)ccc2n2c(=S)[nH]nc2n1CCc1ccccc1,major metabolite (LC–MS/MS),[1],glucuronidation is the major metabolite
O=c1c2cc(F)ccc2n2c(=S)[nH]nc2n1CCc1ccccn1,major metabolite (LC–MS/MS),[1],glucuronidation is the major metabolite
"O=c1c2ccccc2n2c(=S)[nH]nc2n1CCc1ccccc1 [Compound 7, 4-Phenethyl-1-thioxo-2,4-dihydro-[1,2,4]triazolo[4,3-a]-quinazolin-5(1H)-one]",potential off-target interactions,[2],not detected
O=c1c2cc(F)ccc2n2c(=S)[nH]nc2n1CCC(F)(F)F,major metabolite (LC–MS/MS),[1],glucuronidation is the major metabolite
"O=C(Cc1ccc(O)cc1)NCCCn1c(=O)c2cc(F)ccc2n2c(=S)[nH]nc12 [Compound 127, N-(3-(7-Fluoro-5-oxo-1-thioxo-1,2-dihydro-[1,2,4]triazolo[4,3-a]-quinazolin-4(5H)-yl)propyl)-2-(4-hydroxyphenyl)acetamide]",potential off-target interactions,[2],not detected
"CC(C)(C)OC(=O)CC[C@@H](NC(=O)OC(C)(C)C)C(=O)NCCCn1c(=O)c2cc(F)ccc2n2c(=S)[nH]nc12 [Compound 102, tert-Butyl (R)-4-((tert-butoxycarbonyl)amino)-5-((3-(7-fluoro-5-oxo-1-thioxo-1,2-dihydro-[1,2,4]triazolo[4,3-a]quinazolin-4(5H)-yl)propyl)amino)-5-oxopentanoate]",PAMPA,pH 7.4,1214 ×10⁻⁶ cm/s
"CC(C)(C)OC(=O)CC[C@H](NC(=O)OC(C)(C)C)C(=O)NCCCn1c(=O)c2cc(F)ccc2n2c(=S)[nH]nc12 [Compound 103, tert-Butyl (S)-4-((tert-butoxycarbonyl)amino)-5-((3-(7-fluoro-5-oxo-1-thioxo-1,2-dihydro-[1,2,4]triazolo[4,3-a]quinazolin-4(5H)-yl)propyl)amino)-5-oxopentanoate]",PAMPA,pH 7.4,744 ×10⁻⁶ cm/s
